Results from patent EP0906294B1 (WARNER-LAMBERT COMPANY, priority 1996, dated 1997).

Protein sequences, listed by entry. Tags and fused reporters are not part of them. Chains listed by the source or under a name are the forms on record and can include a tag or linker.
UniProt P21917, with tags, fused parts or gaps DEL265-296: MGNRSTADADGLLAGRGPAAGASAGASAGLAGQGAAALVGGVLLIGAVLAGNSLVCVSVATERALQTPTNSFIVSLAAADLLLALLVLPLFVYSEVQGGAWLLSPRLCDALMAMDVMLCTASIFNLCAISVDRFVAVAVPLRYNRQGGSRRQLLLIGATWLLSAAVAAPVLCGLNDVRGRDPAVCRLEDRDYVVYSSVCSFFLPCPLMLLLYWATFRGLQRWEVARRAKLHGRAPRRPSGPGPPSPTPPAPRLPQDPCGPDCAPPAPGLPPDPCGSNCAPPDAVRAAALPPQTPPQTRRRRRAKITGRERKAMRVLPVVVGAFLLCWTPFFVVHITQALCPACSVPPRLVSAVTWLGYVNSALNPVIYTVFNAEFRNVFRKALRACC

Biological target: human recombinant dopamine D4.2 receptor subtype (Homo sapiens, UniProt P21917, DEL265-296)
Experiment: Receptor binding assay, [3H]spiperone competition, D4.2
Conditions: for D2/D4 Ratio: ratio of D2 Ki to D4 Ki
Experimental: The D2 receptor cDNA was subcloned into an expression vector, pRc/CMV. The plasmids were transfected by electroporation into CHO K1 cells. A single stable transfectant, resistant to the antibiotic G418, was isolated and selected for use in the binding studies.
Cells were grown until confluent, after which growth medium was removed and replaced with 0.02% ethylene diamine tetracetate (EDTA) in a phosphate-buffered saline solution (Sigma Chemical Co., St. Louis, Missouri) and scraped from the flasks. The cells were centrifuged at about 1000 × g for 10 minutes at […] and then resuspended in TEM buffer (25 mM Tris-HCl, pH 7.4, 5 mM EDTA, and 6 mM MgCl2) for D2 or the D4.2 buffer (50 mM Tris-HCl, pH 7.4, 5 mM EDTA, 1.5 mM CaCl2, 5 mM KCl, and 120 mM NaCl) and homogenized. The membranes were pelleted by centrifugation at 20,000 × g at […] for 20 minutes. Then the pellets were resuspended in appropriate buffer at 1 mL/flask and stored at -70°C until used in the receptor binding assay.
After 60 minutes incubation at 25°C, the incubations were terminated by rapid filtration through Whatmann GF/B glass fibre filters (soaked for 1 hour in 0.5% polyethylenimine) on a -cell harvester, with three washes of 1 mL ice-cold buffer. Individual filter disks containing the bound ligand were placed in counting vials with 4 mL of scintillation fluid (Ready Gel, Beckman Instrument Inc., Fullerton, California) and then counted in a Beckman LS-6800 liquid scintillation counter at an efficiency of 45%. Nonspecific binding was defined in presence of […] of haloperidol.
Saturation and competition binding data were analyzed using an iterative nonlinear least-square curve-fitting Ligand program. […] Experimental compounds were made up as stock solutions in dimethyl sulfoxide (DMSO). […] Each observation was carried out in triplicate. To allow these calculations, Ki values were measured for the interaction of various ligands with the receptor. […]

SMILES	Ki [nM]	D2/D4 Ratio
Cc1ccc(N2CCN(Cc3ccc4c(c3)NC(=O)CO4)CC2)cc1C [Example 5, 6-[4-(3,4-Dimethyl-phenyl)-piperazin-1-ylmethyl]-4H-benzo[1,4]oxazin-3-one]	5.18	
Cc1ccc(N2CCN(Cc3ccc4c(c3)OCC(=O)N4)CC2)cc1 [Example 12, 7-(4-p-Tolyl-piperazin-1-ylmethyl)-4H-benzo[1,4]oxazin-3-one]	10.7	
Cc1ccc(N2CCN(Cc3ccc4c(c3)OCC(=O)N4)CC2)cc1C [Example 14, 7-[4-(3,4-dimethyl-phenyl)-piperazin-1-ylmethyl]-4H-benzo[1,4]oxazine-3-one]	6.94	49.9
COc1ccc(C2CCN(Cc3ccc4c(c3)NC(=O)CO4)CC2)cc1 [Example 37, 6-[4-(4-Methoxy-phenyl) -piperidin-1-ylmethyl]-4H-benzo[1,4]oxazin-3-one]	3.87	180.4
